Measured values: PubChem BioAssay AID493014 (National Center for Advancing Translational Sciences (NCATS), 2011)
The other results are listed elsewhere or left out. Some of these compounds have results that are not shown, active ones among them. Inconclusive results are not listed. Activity calls are given as the source filed them. The call rests on the fitted dose curve; in most records, active means well fitted inhibition curve with a large enough effect in the signal ratio, with a control signal flat (not every such curve was filed as active); inconclusive means small, poorly fitted or top-dose-only effect, or effect the other way, or a change in a side signal; inactive means flat fitted curve, though single readings scatter; the % refers to the signal ratio.

experiment: qHTS Assay to Find Inhibitors of Chronic Active B-Cell Receptor Signaling; conditions: ABC-DLBCL IkBa-CBG/CBR reporter, luminescence ratio (green luciferase fused to IkBa over red control in TMD8 lymphoma cells), 4 h; at 46.1 µM (top of the series)
Excerpt: NIH Molecular Libraries Probe Production Network [MLPCN] NIH Chemical Genomics Center [NCGC] MLPCN Grant: 1 R03 DA031086-01A1 PI Name: Dr. R. Eric Davis NCGC Assay Overview: Diffuse large B-cell lymphoma (DLBCL) is the most common category of non-Hodgkin lymphoma, with ~20,000 new cases per year in the United States. DLBCL should be regarded as a collection of different neoplasms. Microarray gene expression analysis has defined two principal types of DLBCL, named for their similarity to normal B cell stages or activation states: a germinal center B-cell (GCB) type, and an activated B-cell (ABC) type. In ABC-DLBCL, a constitutive high-level activity of the NF-kappaB family of transcription factors has been observed (1) and NF-kappaB target genes are more highly expressed in ABC primary tumors than in GCB tumors. Functional studies have shown a constitutive high-level activity of the IkappaB (inhibitor of kappa-B) kinase (IKK) complex. […] Further analysis of DLBCL primary tumors for NF-kappaB target gene expression imply that although CARD11 is required for constitutive IKK activity in all ABC-DLBCL lines, mutations in CARD11 may be the root cause of IKK activation only in lines or tumors with such mutations. In other words, CARD11 mutations may explain NF-kappaB activation in only 10% of ABC-DLBCL cases. […] This process has been termed 'chronic active BCR signaling' (CABS). The goal of this screen is to find small-molecule inhibitors of the CABS pathway found in ABC-DLBCL lines using a cell-based assay that measures IkappaBalpa stability, which has already been extensively validated in the OCI-Ly3 line (PubChem AID:445; REF: 4). […] The assay uses green (CBG68) and red (CBR) emitting beetle luciferases [Chroma-GloTM developed by Promega Corp.] where the green luciferase is fused to IkappaBalpha and the red luciferase is present in its native state. Both luciferase genes are stably present in the TMD8 human ABC DLBCL cell line, but their expression is under the control of tetracycline-inducible promoters. Following the addition of doxycycline to induce expression of the luciferases, the green luminescence in control cultures rises only slowly because the CBG fusion partner IkappaBalpha is targeted by IKK activity for rapid degradation. In contrast, green luminescence rises rapidly in the presence of proteasome inhibitors or IKK inhibitors. The rise in red luminescence of CBR is not affected by proteasome or IKK inhibitors, and serves as normalization for cell number and nonspecific effects. Compounds were screened as a concentration-titration series that ranged from 46 uM to 3 nM.
NCGC Assay Protocol Summary: Cells were seeded in 1536-well plates at 5000 cells/4uL in IMDM medium containing 0.5% FBS, w/o phenol red, 1% penicillin/streptomycin. Then, 23 nL of compounds or DMSO were delivered to each well using a pin tool. One uL 20ng/ml doxycycline was then dispensed into white solid 1536-well plates and the plates were incubated at 37C/5% C02 in a cell incubator for 4 hrs. Then 4 uL luminescent substrate mix (in-house prepared: 150 mM Tris-Cl, pH 7.6, 3 mM MgCl2, 1% Triton X-100, 5 mM DTT, 0.2 mM CoA, 0.15 mM ATP, 5 mM D-luciferin, final concentrations) was added to each well. The plate was incubated at r.t. for 10-15 min. The plates were measured on a ViewLux plate reader for green luminescence (540/20 nm filter) and red luminescence (618/8 nm filter). The green and red luminescent signals were corrected for red and green luminescence filter overlap using previously determined filter calibration constants (determined using the procedure outlined in the Promega Technical Manual; REF 4). The %Activity was determined from the ratio of corrected green/red luminescent values. MG132 were used as control. […] Red luminescent %Activity was normalized to the difference between red luminesence in basal cells (0%Activity) and zero luminescence (-100% Activity). […]

| SMILES | activity change, negative = inhibition |
| --- | --- |
| CN(C)C1CCCC1OC(=O)C(O)(c1ccccc1)c1ccccc1 (stereo not given) | inactive: 7.89% |
| CN(C)c1ccc(C(=O)NCC2(N(C)C)CCCCC2)cc1 | inactive: 2.51% |
| Cc1ccccc1C(=O)NCC1(N2CCCCC2)CCCCC1 | inactive: 2.1% |
| O=C(NCC1(N2CCCCC2)CCCCC1)c1cc(F)c(F)cc1Cl | inactive: -0.797% |
| C=CCN1CCN(CCOC(=O)C(O)(c2ccccc2)c2ccccc2)CC1 | inactive: 18.3% |
| Cc1cc(C(=O)NCC2(N3CCCCC3)CCCCC2)ccc1[N+](=O)[O-] | inactive: 11.3% |
| CCN1CCCC(OC(=O)C2(O)c3ccccc3C=Cc3ccccc32)C1 (stereo not given) | inactive: 0.495% |
| COc1ccc(C(=O)NCC2(N(C)C)CCCCC2)cc1 | inactive: 11% |
| O=C(NCC1(N2CCCCC2)CCCCC1)c1cc([N+](=O)[O-])ccc1Cl | inactive: -1.54% |
| CN1[C@@H]2CC[C@H]1CC(OC(=O)C(O)(c1ccccc1)c1ccccc1)C2 (stereo not given in full) | inactive: -10.2% |
| CC(C)N1C(=O)CC2(CCN(CCOC(=O)C(O)(c3ccccc3)c3ccccc3)CC2)C1=O | inactive: -1.81% |
| COc1cc(SC)ccc1C(=O)NCC1(N(C)C)CCCCC1 | inactive: -0.216% |
| CCN(CC)CC(C)C(C)OC(=O)C(O)(c1ccccc1)c1ccccc1 (stereo not given) | inactive: 5.32% |
| Cc1ccc(C(=O)NCC2(N3CCCCC3)CCCCC2)cc1 | inactive: 6.3% |
| COc1ccc(Br)c(C(=O)NCC2(N3CCCCC3)CCCCC2)c1 | inactive: -12.4% |
| CN(C)c1cccc(C(=O)NCC2(N(C)C)CCCCC2)c1 | inactive: 3.46% |
| CC(C)Oc1ccc(C(=O)NCC2(N(C)C)CCCCC2)cc1 | inactive: 3.44% |
| CN(C)C1(CNC(=O)c2ccc(Br)cc2)CCCCC1 | inactive: 2.3% |
| COc1cccc(C(=O)NCC2(N3CCCCC3)CCCCC2)c1 | inactive: 3.01% |
| O=C(NCC1(N2CCCCC2)CCCCC1)c1cccc(Cl)c1 | inactive: 1.25% |
